Measurements taken from patent US20100160411A1, “BENZOXATHIINE AND BENZOXATHIOLE DERIVATIVES AND USES THEREOF” (Wyeth, priority 2006, published 2010).

Chains of the proteins cited; added tags and fusions are not shown. Residues count along the entry.
UniProt P28335, 33-458: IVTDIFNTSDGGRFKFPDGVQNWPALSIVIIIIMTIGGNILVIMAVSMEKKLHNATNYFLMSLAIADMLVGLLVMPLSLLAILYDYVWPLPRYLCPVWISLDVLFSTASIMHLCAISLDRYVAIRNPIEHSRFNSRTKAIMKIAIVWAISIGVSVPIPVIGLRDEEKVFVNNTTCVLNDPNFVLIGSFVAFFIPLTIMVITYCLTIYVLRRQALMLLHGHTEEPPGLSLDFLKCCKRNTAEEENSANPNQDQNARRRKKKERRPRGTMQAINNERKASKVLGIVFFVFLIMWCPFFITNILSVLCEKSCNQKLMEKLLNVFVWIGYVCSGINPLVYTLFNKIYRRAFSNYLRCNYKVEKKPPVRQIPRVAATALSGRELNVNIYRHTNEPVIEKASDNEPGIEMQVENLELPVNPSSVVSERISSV

Assays:
human 5-HT2C receptor = human 5-HT2C receptor (Homo sapiens, UniProt P28335); assay: calcium mobilization (FLIPR) in CHO cells stably expressing the human 5-HT2C receptor; format: cell-based; details: reference compounds, Fluo-3-AM
[1] = biological target: T1, human 5-hydroxytryptamine-2C (h5-HT2C) receptor (Homo sapiens, UniProt P28335); assay: [125I]DOI binding to membranes of CHO cells expressing the h5-HT2C receptor; details: reference compounds; 95% confidence interval in parentheses; [125I]DOI radioligand, CHO cell membranes
T1 construct: expressed in transfected cells; host or cells: CHO (Chinese Hamster Ovary) cells; membrane preparation

SMILES: Cn1ccc2cc3c(cc21)CCN3C(=O)Nc1cccnc1
- EC50 (human 5-HT2C receptor): 13 nM

SMILES: Clc1cccc(N2CCNCC2)c1 [mCPP, meta-chlorophenylpiperazine]
- EC50 (human 5-HT2C receptor): 5.4 nM
- Ki [1]: 6.5 nM
